Source: article PMC4408270 (Bioorganic & medicinal chemistry letters, 2015)
Where a chain is given by its changes, count along the chain named.

Columns and labels:
CCK2R TM2 (T2.61N) [1] = biological target: T1, CCK2R TM2 (T2.61N) (Homo sapiens, UniProt P32239, T111N); test: 125I-BDZ-2 competition binding, chimeric construct; conditions: NDB = no detectable binding
T1 sequence (P32239 1-447 T111N): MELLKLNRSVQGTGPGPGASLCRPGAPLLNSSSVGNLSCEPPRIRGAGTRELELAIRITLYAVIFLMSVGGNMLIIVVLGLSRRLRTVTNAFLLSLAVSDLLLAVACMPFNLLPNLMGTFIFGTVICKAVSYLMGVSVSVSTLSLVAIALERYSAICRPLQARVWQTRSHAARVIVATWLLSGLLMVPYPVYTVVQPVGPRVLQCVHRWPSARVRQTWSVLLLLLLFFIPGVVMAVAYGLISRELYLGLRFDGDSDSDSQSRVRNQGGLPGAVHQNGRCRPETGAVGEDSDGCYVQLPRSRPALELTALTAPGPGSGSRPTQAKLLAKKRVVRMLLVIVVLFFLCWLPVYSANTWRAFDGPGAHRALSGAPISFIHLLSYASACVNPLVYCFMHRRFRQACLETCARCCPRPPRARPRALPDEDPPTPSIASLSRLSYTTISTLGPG

CCK2R TM2 (T2.61N) [2] = biological target: T1, CCK2R TM2 (T2.61N); test: 125I-CCK competition binding, chimeric construct
[3] = biological target: T2, CCK2R TM3 (V3.28T, S3.29T) (Homo sapiens, UniProt P32239, S131T/V130T); test: 125I-BDZ-2 competition binding, chimeric construct
T2 sequence (P32239 1-447 V130T/S131T): T1 sequence (P32239 1-447 T111N) with N111T, V130T, S131T

[4] = biological target: T2, CCK2R TM3 (V3.28T, S3.29T); test: 125I-CCK competition binding, chimeric construct
[5] = biological target: T3, CCK2R TM6 (V6.51I, Y6.52F) (Homo sapiens, UniProt P32239, V349I/Y350F); test: 125I-CCK competition binding, chimeric construct
T3 sequence (P32239 1-447 V349I/Y350F): T1 sequence (P32239 1-447 T111N) with N111T, V349I, Y350F

CCK2R = biological target: T4, CCK2R (Homo sapiens, UniProt P32239); test: Competition binding of orthosteric radioligand 125I-CCK, CHO cell membranes
T4 sequence (P32239 1-447): T1 sequence (P32239 1-447 T111N) with N111T

With `O=C(CN1C(=O)C(NC(=O)Nc2ccccc2)C(=O)N(c2ccccc2)c2ccccc21)Nc1ccccc1` (stereo not drawn) the “IC50, 125I-BDZ-2” value (CCK2R TM2 (T2.61N) [1]) was “NDB”, the IC50 (CCK2R TM2 (T2.61N) [2]) was 188 ± 31.2 nM and the IC50 [3] was 135 ± 12.5 nM. The IC50 [4] was 51 ± 2.8 nM, the IC50 [5] was 68.3 ± 9.3 nM and the IC50 (CCK2R) was 46.3 ± 10.6 nM.
